Measurements as given in patent EP1935986B1, “Luminogenic and fluorogenic compounds and methods to detect molecules or conditions” (priority 2005, dated 2006).

The chains behind the UniProt entries cited, without tags or fusion partners. Residues count along the entry.
UniProt P05177, 2-516 limits assumed: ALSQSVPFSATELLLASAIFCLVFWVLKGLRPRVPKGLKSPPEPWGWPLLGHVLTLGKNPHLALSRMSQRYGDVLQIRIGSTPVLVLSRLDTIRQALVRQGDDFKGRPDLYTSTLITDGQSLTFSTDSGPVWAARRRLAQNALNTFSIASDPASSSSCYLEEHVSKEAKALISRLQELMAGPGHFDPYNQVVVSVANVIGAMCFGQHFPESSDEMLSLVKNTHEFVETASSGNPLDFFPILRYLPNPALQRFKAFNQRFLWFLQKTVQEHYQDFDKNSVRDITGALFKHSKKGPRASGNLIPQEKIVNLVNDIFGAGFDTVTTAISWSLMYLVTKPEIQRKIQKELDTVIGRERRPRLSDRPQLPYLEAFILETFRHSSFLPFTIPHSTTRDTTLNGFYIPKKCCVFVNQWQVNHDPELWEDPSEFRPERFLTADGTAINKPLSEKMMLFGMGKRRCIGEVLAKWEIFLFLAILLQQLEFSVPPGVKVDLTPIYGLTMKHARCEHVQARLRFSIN

What was measured:
[1] = biological target: CYP1A2 (Homo sapiens, UniProt P05177); test: Two-step luminescent P450 screen of luciferin derivatives; settings: 50 µM substrate, 1 pmole P450; result in words
[2] = test system: panel of recombinant human P450s; test: Two-step luminescent P450 screen of luciferin derivatives, whole panel incl. HLM; format: biochemical; settings: 50 µM substrate; result in words
Experimental: A number of luciferin derivatives useful to detect P450 enzymes in a two step format were prepared: A, B and C ring modifications on (4S)-4,5-dihydro-2-(6-hydroxybenzothiazolyl)-4-thiazolecarboxylic acid (D-luciferin), and A ring modifications on (4S)-4,5-dihydro-2-(6-aminobenzothiazolyl)-4-thiazolecarboxylic acid (aminoluciferin). […] In addition, it was also of interest to identify substrates with improved selectivity for single P450 enzymes. As described below, in addition to new P450 substrates, luciferin esters were identified that are luminogenic substrates for carboxylesterases. Luciferin derivatives were tested as substrates for each of a panel of cytochrome P450 enzymes. Derivatives useful as P450 substrates may be employed in assays to detect inhibitors for particular P450 enzymes (see Figures 17-18).
P450s are Supersomes™ purchased from Discovery Labware (BD/Gentest). […] HLM is human liver microsomes.
1X substrate concentration: 50 µM.

[3] = test system: luciferase

P450 activity / selectivity with the derivative as substrate [1]	Substance	luminescent signals with the panel of P450 enzymes [2]	background luminescence (minus P450 control samples) [3]
good selectivity	luciferin-6-methylether-methoxylamide		
	Luciferin 6-isobutylcarbonate	non-selective	large background signal
